Assay results published in patent US20250288589A1, “PYRIDOPYRIMIDINES AND METHODS OF THEIR USE” (Kineta, Inc., priority 2021, published 2025).

Protein sequences, listed by entry. Tags and fused reporters are not part of them.
UniProt Q9Y2I7, whole entry S696N/L932S/Q995L/T998S/S1033A/Q1183K: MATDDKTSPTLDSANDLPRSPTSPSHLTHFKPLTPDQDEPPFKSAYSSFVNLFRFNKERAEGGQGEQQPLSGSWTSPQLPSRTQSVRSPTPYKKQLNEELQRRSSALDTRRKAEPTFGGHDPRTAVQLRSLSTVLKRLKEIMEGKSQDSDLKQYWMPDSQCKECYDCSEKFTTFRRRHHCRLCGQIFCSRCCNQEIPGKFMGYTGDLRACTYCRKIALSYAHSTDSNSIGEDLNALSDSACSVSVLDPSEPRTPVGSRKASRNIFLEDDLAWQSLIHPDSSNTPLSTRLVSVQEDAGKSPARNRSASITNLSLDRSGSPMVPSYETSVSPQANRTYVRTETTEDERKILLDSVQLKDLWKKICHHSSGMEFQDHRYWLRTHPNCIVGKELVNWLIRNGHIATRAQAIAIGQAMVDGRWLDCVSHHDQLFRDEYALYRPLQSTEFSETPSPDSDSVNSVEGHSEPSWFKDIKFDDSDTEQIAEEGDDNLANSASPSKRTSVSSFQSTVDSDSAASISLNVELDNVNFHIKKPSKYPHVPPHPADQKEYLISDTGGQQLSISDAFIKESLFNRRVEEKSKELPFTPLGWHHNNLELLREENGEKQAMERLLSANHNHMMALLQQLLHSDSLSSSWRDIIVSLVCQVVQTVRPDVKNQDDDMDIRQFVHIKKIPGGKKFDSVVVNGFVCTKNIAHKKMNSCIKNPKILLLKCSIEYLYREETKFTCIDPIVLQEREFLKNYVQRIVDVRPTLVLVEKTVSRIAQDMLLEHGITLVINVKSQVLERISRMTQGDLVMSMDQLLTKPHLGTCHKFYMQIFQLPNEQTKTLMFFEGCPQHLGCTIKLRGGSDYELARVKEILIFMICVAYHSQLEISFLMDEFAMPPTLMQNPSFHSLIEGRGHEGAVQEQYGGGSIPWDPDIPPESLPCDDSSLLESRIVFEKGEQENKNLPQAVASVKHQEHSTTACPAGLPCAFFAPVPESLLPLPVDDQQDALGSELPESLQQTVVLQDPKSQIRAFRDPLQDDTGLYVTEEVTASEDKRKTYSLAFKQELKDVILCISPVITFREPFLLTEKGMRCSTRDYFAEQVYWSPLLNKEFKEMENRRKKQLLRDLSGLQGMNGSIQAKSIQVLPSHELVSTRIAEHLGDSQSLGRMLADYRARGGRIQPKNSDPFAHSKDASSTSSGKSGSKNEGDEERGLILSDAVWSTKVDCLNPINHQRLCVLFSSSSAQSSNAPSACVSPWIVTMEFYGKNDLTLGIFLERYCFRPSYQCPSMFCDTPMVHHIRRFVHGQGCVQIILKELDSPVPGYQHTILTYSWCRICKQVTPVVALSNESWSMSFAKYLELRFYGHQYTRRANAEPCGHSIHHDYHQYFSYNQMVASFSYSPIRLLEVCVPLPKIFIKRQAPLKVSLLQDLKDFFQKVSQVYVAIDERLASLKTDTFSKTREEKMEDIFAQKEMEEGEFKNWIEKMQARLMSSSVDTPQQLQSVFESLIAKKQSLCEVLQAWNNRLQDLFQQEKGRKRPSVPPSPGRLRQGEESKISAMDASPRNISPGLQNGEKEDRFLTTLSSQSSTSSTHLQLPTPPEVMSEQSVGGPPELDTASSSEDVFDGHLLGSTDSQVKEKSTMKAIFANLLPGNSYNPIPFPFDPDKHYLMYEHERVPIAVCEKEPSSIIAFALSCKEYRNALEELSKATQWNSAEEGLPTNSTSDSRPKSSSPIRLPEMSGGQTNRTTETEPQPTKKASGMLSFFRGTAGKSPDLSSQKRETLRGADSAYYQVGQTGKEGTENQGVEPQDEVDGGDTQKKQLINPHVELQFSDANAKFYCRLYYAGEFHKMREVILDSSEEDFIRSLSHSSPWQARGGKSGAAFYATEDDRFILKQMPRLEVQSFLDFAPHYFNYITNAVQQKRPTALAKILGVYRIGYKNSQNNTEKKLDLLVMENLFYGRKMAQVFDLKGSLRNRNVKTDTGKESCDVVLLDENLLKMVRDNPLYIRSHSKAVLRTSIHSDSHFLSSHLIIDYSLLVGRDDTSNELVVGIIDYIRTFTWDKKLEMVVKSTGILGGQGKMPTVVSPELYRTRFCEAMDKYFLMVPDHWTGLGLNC

Target: full-length human PIKFYVE (Homo sapiens, UniProt Q9Y2I7, L932S/Q1183K/Q995L/S1033A/S696N/T998S)
Experiment: PIKfyve biochemical assay (ADP-Glo Kinase assay, Carna Biosciences)
Settings: read-out: hPIKfyve IC50, GST-PIKFYVE, 10 μM to 3 nM in duplicate

**Q.** With `c1ccc(-n2ccc(-c3nc(N4CCOCC4)c4ncccc4n3)n2)cc1` as the compound, how does the IC50 read?
**A.** Its IC50 is 100 to 1000 nM.
